Assay results published in US5278150A, “2-hydrazoadenosines and their utility for the treatmeat of vascular conditions” (Whitby Research, Inc., priority 1992, dated 1994).

Sequences of proteins named here, by UniProt entry; tags and fusion partners are left off.
UniProt P47745, whole entry: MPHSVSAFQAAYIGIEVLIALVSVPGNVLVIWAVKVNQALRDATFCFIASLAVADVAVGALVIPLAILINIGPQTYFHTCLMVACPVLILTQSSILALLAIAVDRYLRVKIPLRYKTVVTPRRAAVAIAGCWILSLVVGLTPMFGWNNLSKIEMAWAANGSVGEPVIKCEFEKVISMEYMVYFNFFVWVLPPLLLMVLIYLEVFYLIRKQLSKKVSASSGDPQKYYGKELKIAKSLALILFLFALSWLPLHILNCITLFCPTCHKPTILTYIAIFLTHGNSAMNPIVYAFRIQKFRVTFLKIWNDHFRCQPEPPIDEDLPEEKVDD

Tests used:
A2 adenosine receptor = conditions: coronary arteries vs atrioventricular node; cited from earlier work
A1 adenosine receptor = A1 adenosine receptor (Cavia porcellus, UniProt P47745); conditions: -LOG EC50 A1, BIOASSAY RESULTS table

Structure (SMILES)	selectivity for the A2 receptor (A2 adenosine receptor) [fold]	EC50 (A1 adenosine receptor) [µM]
Nc1nc(OCCC2CCCCC2)nc2c1ncn2[C@@H]1O[C@H](CO)[C@@H](O)[C@H]1O [2-(2-cyclohexylethoxy)adenosine]	8700	–
COc1ccc(C=NNc2nc(N)c3ncn([C@@H]4O[C@H](CO)[C@@H](O)[C@H]4O)c3n2)cc1 [Example 11, 6-amino-2-{2-[(4-methoxyphenyl)methylene]diazanyl}-9-(β-D-ribofuranosyl)-9H-purine]	–	22.9
